Details: mouse, in vivo

For MI-219, the “oral bioavailability in mice (in words)” value was “orally bioavailable”.

Reference: patent US9079913B2, “Spiro-oxindole MDM2 antagonists” (The Regents of the University of Michigan, priority 2009, dated 2015)
